In US4840949A, “Oxadiazole-alkyl-purine derivatives useful as antitussive agents” (Chinoin Gyogyszer Es Vegyeszeti Termekek Gyara Rt., priority 1986, dated 1989) one finds LD50 data, which are given here for one compound.

The data set can be described thus: in vivo. The following applies: rat, ip.

What is called LD50 is the dose at which mortality reaches 50%. In the case of `Cc1nc(Cn2cnc3c2c(=O)n(C)c(=O)n3C)no1` [Compound 2, 3,7-dihydro-1,3-dimethyl-7-[(5-methyl-1,2,4-oxadiazole-3-yl)-methyl]-1H--purine-2,6-dione, reference compound], the LD50 was 530 mg/kg.
